These results are taken from publication PMC5947877 (Phytomedicine : international journal of phytotherapy and …, 2017).

The chains behind the UniProt entries cited, without tags or fusion partners.
UniProt P21397, whole entry: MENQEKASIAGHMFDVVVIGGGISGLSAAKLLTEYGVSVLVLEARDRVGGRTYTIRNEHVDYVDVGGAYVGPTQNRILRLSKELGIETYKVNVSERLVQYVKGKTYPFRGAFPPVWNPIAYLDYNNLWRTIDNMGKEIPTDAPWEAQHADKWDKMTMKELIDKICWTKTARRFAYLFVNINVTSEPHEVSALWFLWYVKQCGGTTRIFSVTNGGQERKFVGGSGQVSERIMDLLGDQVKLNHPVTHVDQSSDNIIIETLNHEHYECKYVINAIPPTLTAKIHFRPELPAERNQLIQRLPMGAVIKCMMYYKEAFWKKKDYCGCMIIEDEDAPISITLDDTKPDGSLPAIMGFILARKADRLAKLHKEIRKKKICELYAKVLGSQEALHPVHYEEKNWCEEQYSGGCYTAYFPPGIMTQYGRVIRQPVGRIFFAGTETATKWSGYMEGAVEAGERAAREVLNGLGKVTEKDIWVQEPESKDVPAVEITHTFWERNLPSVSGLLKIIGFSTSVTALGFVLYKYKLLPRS

SMILES strings stand for the structures.

The target in this experiment is recombinant human MAO-A (Homo sapiens, UniProt P21397). Kind of experiment: Enzyme kinetics and mechanism of inhibition with MAO-A. It is filed as biochemical. The conditions noted are these: Lineweaver-Burk analysis; reversibility from dialysis.

As for `C#CCN(C)CCCOc1ccc(Cl)cc1Cl` [Clorgyline, clorgyline, reference compound], the “Type of Inhibition, Monoamine oxidase-A” value is recorded as “Mixed/Irreversible”.
`NNCCc1ccccc1` [Phenelzine, phenelzine, reference compound]: the “Type of Inhibition, Monoamine oxidase-A” value is “Mixed/Irreversible”.
